Data published in publication PMC9168620, “Genetic validation of Aspergillus fumigatus phosphoglucomutase as a viable therapeutic target in invasive aspergillosis” (The Journal of Biological Chemistry, 2022).

Protein sequences, listed by entry. Tags and fused reporters are not part of them. Lines headed by an entry give the natural chain unless they say otherwise; changes in a name come on top.
UniProt Q4WY53: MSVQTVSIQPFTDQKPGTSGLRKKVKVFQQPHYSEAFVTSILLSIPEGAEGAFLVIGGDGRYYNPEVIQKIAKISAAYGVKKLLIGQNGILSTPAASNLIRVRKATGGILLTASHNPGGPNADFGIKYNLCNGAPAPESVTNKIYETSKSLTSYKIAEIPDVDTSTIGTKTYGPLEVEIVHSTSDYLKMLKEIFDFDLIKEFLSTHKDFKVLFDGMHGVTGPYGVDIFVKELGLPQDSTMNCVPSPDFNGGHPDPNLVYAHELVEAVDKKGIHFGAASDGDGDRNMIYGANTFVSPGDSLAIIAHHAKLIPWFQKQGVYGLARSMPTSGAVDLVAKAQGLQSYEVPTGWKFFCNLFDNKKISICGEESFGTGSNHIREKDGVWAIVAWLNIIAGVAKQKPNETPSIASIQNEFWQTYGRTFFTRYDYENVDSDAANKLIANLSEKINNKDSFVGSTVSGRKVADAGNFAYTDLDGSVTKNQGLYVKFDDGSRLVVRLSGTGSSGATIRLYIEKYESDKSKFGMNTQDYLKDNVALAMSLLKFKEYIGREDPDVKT

Legend:
[1] = biological target: T1, AfPGM (Aspergillus fumigatus, UniProt Q4WY53); assay type: biochemical; settings: 15-min preincubation (Fig. S11C, D)
T1 construct: Full length AfPGM; 6His-GST (N, cleaved yes); made in house; host or cells: E. coli BL21 (DE3) pLysS
Protocol: (§1) The reaction mixture contained MOPS–NaOH (pH 7.4; 50 mM), MgSO4 (1.5 mM), NADP^+ (1 mM), G6PDH (0.01 U) from L. mesenteroides, Glc-1P (500 μM), Glc-1,6-2P (50 μM), and enzyme (5 nM). The reaction was carried out at 25 °C for 6 min in a total volume of 100 μl. Formation of NADPH was detected in real-time (every 1.5 min), measuring fluorescence signal (excitation at 360 nm; emission at 460 nm). To measure the inhibitory activity, compounds with different concentrations (3% (v/v) DMSO) were added to the reaction system. IC50 values were calculated using the product (NADPH) concentration at 6 min with 500 μM Glc-1P.
(§2) Figure S11: Representative enzyme activity assays for PGMs. Error bars represent standard deviation of three determinations. Panel A and B show the time course of PGMs and PGM mutants in which sugar recognition glutamates are mutated to glutamine. […] Values in parentheses indicate the time at which DTT (1 mM) was added.

[2] = system: AfPGM; assay type: biochemical; settings: no preincubation
Protocol: as §1, §2

O=c1ccsn1-c1cccc(Cl)c1F [ISFP1]
Shift in IC50 against AfPGM over preincubation [1]: did not significantly display a shift
Selectivity, IC50 HsPGM over IC50 WT AfPGM [2]: approximately 20 fold
